## AlphaSeq binding of Ab-14 light chain variants to a spike HR2 peptide

All variants were tested on one target, the spike HR2 peptide PDVDLGDISGINAS (SARS-CoV-2).

Parent scFv Ab-14: VH joined to VL by three GGGGS repeats. Changes lie in the light chain CDRs alone.
VH: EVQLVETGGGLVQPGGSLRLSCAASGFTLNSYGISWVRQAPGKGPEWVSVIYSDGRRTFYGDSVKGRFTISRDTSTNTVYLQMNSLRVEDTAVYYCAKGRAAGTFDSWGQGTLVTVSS
VL: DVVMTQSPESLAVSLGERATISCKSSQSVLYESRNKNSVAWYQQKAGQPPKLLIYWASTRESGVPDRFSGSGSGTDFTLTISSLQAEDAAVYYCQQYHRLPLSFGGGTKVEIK

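The parent was found by panning a naive human phage display library on the peptide. Designed CDR sequences, proposed from the first random library and measured here. Group labels follow the data file (Ctrl: baseline library sampled from a position-specific scoring matrix, with some repeated check sequences; En: ensemble of fine-tuned language models; GP: Gaussian process model; HC: hill climbing; Gen: genetic algorithm; Gibbs: Gibbs sampling; a sequence that several methods proposed may carry one label only). AlphaSeq pools MATa yeast showing the antibodies with MATalpha yeast showing the peptide. Mating (16 h, 30 °C) was followed by selection of diploids and sequencing of their barcodes. A regression on co-assayed BCL2-family reference pairs converts the normalised counts of each replicate to an apparent Kd. The assay was run in six technical replicates.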

The whole VL of each variant is written out. The Kd shown is the geometric mean over detected replicates; a lower Kd is a better binder. "nd" means that the variant was in the library but no mating with the target was seen in any replicate; the authors take this as a sign of poor binding, and no number exists. The parent sequence was in this pool as ten entries: three were never detected, three once, and four in most replicates, with averages from 2.2 nM to 240 nM. The range of this assay differs from that of the first round, and the authors advise against merging the two. Empty control strains, which show no peptide, gave a signal in 4% of pairings with all light chain designs; the median was 430 nM and 95% of these signals were weaker than 38 nM. No background was subtracted. In the paper, a design with two or fewer of six values counts as a poor binder.

The variant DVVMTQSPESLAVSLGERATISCKLSQSVLYESRNKNSVAWYQQKAGQPPKLLIYDASQRESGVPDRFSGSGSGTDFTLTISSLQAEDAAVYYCQDYHRLPLSFGGGTKVEIK [GP_Gen] gave 1.5 nM (6 of 6 replicates).
The variant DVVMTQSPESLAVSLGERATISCKSSSSVLYESRNKNSVAWYQQKAGQPPKLLIYKASTREGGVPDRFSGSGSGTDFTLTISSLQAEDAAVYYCQQYHRLPLSFGGGTKVEIK [Ctrl] gave 450 nM (5 of 6 replicates).
The variant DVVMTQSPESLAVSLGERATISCKLRQSTVIESFNKNNVAWYQQKAGQPPKLLIYEMTTRESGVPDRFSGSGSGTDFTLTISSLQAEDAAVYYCQSYDRLPLSFGGGTKVEIK [En_HC] gave 230 nM (5 of 6 replicates).
The variant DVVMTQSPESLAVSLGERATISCKWSQAFLYESRNKNSVAWYQQKAGQPPKLLIYDANTRESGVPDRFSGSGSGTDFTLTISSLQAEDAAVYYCQQYHRLPLSFGGGTKVEIK [GP_HC] gave 760 pM (6 of 6 replicates).
The variant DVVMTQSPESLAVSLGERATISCKISQSCLYESRNKNSVAWYQQKAGQPPKLLIYWASTRESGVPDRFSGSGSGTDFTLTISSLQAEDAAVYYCQQYHRLPLSFGGGTKVEIK [Ctrl] gave 3.4 nM (6 of 6 replicates).
The variant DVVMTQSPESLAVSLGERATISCKSSQSWLYESNNKNSVAWYQQKAGQPPKLLIYWGSTRESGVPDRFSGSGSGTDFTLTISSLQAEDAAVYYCQQYHWLPLIFGGGTKVEIK [Ctrl] gave nd (0 of 6 replicates).
The variant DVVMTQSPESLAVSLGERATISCKYSQSFLYESRWKNSVAWYQQKAGQPPKLLIYGASQRESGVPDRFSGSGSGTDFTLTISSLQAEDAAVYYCQQYHRLPLSFGGGTKVEIK [GP_HC] gave 2.2 nM (6 of 6 replicates).
The variant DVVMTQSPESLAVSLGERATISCKVSPSVLYESRNKNSVAWYQQKAGQPPKLLIYNASTRESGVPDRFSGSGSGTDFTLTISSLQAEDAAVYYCQQYHRLPLSFGGGTKVEIK [GP_Gen] gave 650 pM (6 of 6 replicates).
The variant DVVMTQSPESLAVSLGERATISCKISQMVKVGSTHSNSIAWYQQKAGQPPKLLIYEEQTRANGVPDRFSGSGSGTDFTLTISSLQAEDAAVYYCQQYHRLPLSFGGGTKVEIK [En_Gen] gave 2.1 nM (6 of 6 replicates).
The variant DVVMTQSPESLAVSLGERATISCSLSQSVLYESRNKNSVAWYQQKAGQPPKLLIYHASLREDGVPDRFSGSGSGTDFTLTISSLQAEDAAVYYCQQYHRLPLSFGGGTKVEIK [GP_HC] gave 870 pM (6 of 6 replicates).
The variant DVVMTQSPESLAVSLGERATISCKLSDSVLYESRNKNSVAWYQQKAGQPPKLLIYDASTRESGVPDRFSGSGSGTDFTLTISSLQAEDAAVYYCQQYHRLPLSFGGGTKVEIK [GP_Gen] gave 550 pM (6 of 6 replicates).
The variant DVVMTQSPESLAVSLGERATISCKFSQLVLYESRNKNSVAWYQQKAGQPPKLLIYNASTRESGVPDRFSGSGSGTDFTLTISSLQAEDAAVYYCQQYHRLPLSFGGGTKVEIK [GP_Gen] gave 860 pM (6 of 6 replicates).
The variant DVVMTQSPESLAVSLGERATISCKLSQSELYESRNKNSVAWYQQKAGQPPKLLIYNASERESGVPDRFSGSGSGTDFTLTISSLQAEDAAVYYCQQYHRLPLSFGGGTKVEIK [GP_Gen] gave 550 pM (6 of 6 replicates).
The variant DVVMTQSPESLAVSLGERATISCRLHEYFYMPENANNSIAWYQQKAGQPPKLLIYEKDYRARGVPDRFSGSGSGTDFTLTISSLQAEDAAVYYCQQYYRLPLAFGGGTKVEIK [En_Gibbs] gave 22 nM (6 of 6 replicates).
The variant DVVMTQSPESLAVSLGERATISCIVSQLMLWGYHAKNSIAWYQQKAGQPPKLLIYEAEMRLNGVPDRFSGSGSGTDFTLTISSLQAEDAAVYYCQQYERLPLFFGGGTKVEIK [En_Gen] gave nd (0 of 6 replicates).
The variant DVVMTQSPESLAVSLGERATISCMMSQVTALGQRHRNNVAWYQQKAGQPPKLLIYQTSTREEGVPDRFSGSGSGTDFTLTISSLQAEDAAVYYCQQYDRLPLIFGGGTKVEIK [En_Gen] gave 11 nM (6 of 6 replicates).
The variant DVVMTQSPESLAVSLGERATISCKSSQSVWYESRNSNSVAWYQQKAGQPPKLLIYWASTREDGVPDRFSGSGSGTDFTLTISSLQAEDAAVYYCQQYHRLPLSFGGGTKVEIK [Ctrl] gave 4.2 nM (6 of 6 replicates).
The variant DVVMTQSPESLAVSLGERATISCKLDQSHLYESRNKNSVAWYQQKAGQPPKLLIYGASTRESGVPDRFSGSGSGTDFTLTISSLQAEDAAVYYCQQYHRLPLSFGGGTKVEIK [GP_HC] gave 9.5 nM (6 of 6 replicates).
The variant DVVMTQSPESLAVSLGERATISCKITLIFSNKGNQRHSVAWYQQKAGQPPKLLIYNAETLAHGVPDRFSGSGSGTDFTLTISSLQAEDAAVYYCQQYYRLPFLFGGGTKVEIK [En_Gibbs] gave 73 nM (1 of 6 replicates).
The variant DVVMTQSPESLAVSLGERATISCKSSDSVLYESRNKNSVAWYQQKAGQPPKLLIYSASTREYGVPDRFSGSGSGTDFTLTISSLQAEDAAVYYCDQYHRLPLSFGGGTKVEIK [Ctrl] gave nd (0 of 6 replicates).
The variant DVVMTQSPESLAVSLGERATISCKVSQSWLYESGTKNSVAWYQQKAGQPPKLLIYNASSRESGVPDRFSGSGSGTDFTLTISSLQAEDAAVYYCQQYHRLPLSFGGGTKVEIK [GP_HC] gave 1.3 nM (6 of 6 replicates).
The variant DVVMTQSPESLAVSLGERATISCKLPQSMGYESRNKNSVAWYQQKAGQPPKLLIYNASTRESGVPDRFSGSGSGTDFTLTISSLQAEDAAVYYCQQYHRLPLSFGGGTKVEIK [GP_Gen] gave 780 pM (6 of 6 replicates).
The variant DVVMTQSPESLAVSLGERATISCKVSMSVNYLQRNFNSVAWYQQKAGQPPKLLIYQASQRESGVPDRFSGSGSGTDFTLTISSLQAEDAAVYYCQQYHRLPLSFGGGTKVEIK [GP_Gibbs] gave 2.2 nM (6 of 6 replicates).
The variant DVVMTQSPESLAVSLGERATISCRSSQSVLYESRMKNSVAWYQQKAGQPPKLLIYDATTRESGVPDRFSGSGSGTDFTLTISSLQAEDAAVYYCQQYHRLPLSFGGGTKVEIK [Ctrl] gave 2.3 nM (6 of 6 replicates).

Extract of 2 entries:

| VL | group | apparent Kd | replicates with signal |
|---|---|---|---|
| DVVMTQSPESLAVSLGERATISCKITLIFSNKGNQRHSVAWYQQKAGQPPKLLIYNAETLAHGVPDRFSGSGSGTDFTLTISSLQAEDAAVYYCQQYYRLPFLFGGGTKVEIK | En_Gibbs | 73 nM | 1/6 |
| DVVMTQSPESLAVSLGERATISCRSSQSVLYESRMKNSVAWYQQKAGQPPKLLIYDATTRESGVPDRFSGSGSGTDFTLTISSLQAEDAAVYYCQQYHRLPLSFGGGTKVEIK | Ctrl | 2.3 nM | 6/6 |

Data: MIT Lincoln Laboratory AlphaSeq set, Li et al. 2023, doi:10.1038/s41467-023-39022-2, as distributed in FLAb.